{
  "source": "patent US20190000976A1",
  "about": "“Purgative Composition” (CTC BIO, INC., priority 2016, published 2019)",
  "assay": "Stability of sodium picosulfate in solution alone, with polyethylene glycol 4000 or with sorbitol (content by HPLC, British Pharmacopoeia)",
  "assay_type": "physicochemical",
  "settings": "accelerated condition (40° C., 75%RH)",
  "procedure": "0.01 g of sodium picosulfate, 150 g of polyethylene glycol 4000, and 54.6 g of sorbitol were dissolved with heat in purified water according to the following tables and the total volume was 300 ml. The solution was stored at room temperature, in accelerated condition (40° C., 75%RH), and stress condition (60° C., 75%RH). The content of sodium picosulfate was evaluated. The content of sodium picosulfate was determined by ‘Sodium picosulfate’ test method of British Pharmacopoeia using high performance liquid chromatography.",
  "data": [
    {"molecule": "O=S(=O)(O)Oc1ccc(C(c2ccc(OS(=O)(=O)O)cc2)c2ccccn2)cc1", "note": "[sodium picosulfate]", "values": [
      {"measurement": "Content (%) of sodium picosulfate, After 2 weeks Accelerated condition", "result": 103.6, "unit": "%"}
    ]}
  ]
}
